This note sets out measurements from US8969288B2 (Indiana University Research and Technology Corporation, priority 2008, dated 2015).

By UniProt entry, the sequences of proteins in these tests, tags left out. Residues count along the entry.
UniProt P43220, 24-463, species assumed: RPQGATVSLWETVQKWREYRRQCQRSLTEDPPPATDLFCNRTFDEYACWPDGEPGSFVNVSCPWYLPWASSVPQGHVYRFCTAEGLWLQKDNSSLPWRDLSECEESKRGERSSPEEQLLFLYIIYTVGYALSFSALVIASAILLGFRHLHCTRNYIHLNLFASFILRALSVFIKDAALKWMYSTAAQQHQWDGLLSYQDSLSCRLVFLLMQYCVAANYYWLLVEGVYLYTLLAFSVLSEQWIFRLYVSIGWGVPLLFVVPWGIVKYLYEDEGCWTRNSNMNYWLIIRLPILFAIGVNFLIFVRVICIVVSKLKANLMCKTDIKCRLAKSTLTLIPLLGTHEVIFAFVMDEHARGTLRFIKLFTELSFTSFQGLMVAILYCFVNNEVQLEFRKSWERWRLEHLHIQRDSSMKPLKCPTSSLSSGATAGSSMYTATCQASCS

The data set deals with GLP-1 receptor (Homo sapiens, UniProt P43220). In words: GLP-receptor Luciferase assay of prodrug samples incubated in plasma.

Each structure is given as a SMILES string.

Broadly, the half-life is the time in which the quantity being followed falls by half. Consider `CC[C@H](C)[C@H](NC(=O)[C@H](Cc1ccccc1)NC(=O)[C@H](CCC(=O)O)NC(=O)[C@H](CCCCN)NC(=O)[C@H](C)NC(=O)[C@H](C)NC(=O)[C@H](CCC(N)=O)NC(=O)CNC(=O)[C@H](CCC(=O)O)NC(=O)[C@H](CC(C)C)NC(=O)[C@H](Cc1ccc(O)cc1)NC(=O)[C@H](CO)NC(=O)[C@H](CO)NC(=O)[C@@H](NC(=O)[C@H](CC(=O)O)NC(=O)[C@H](CO)NC(=O)[C@@H](NC(=O)[C@H](Cc1ccccc1)NC(=O)[C@@H](NC(=O)CNC(=O)[C@H](CCC(=O)O)NC(=O)[C@H](C)NC(=O)[C@H](Cc1c[nH]cn1)NC(=O)CN(C)C(=O)[C@H](N)CCCCN)[C@@H](C)O)[C@@H](C)O)C(C)C)C(=O)N[C@@H](CS)C(=O)N[C@@H](Cc1c[nH]c2ccccc12)C(=O)N[C@@H](CC(C)C)C(=O)N[C@H](C(=O)N[C@@H](CCCCN)C(=O)NCC(=O)N[C@@H](CCCNC(=N)N)C(=O)O)C(C)C` [dLys^−1-Sar^0,C^24GLP(7-36)], for which the half-life was approximately 10 h.
